Results published in PubChem BioAssay AID775 (SRMLSC, 2007).
This is a selection; strong and weak results do not stand in their true shares. Some results for these compounds are left out of this collection, so the calls shown say nothing about other tests. The source made the active and inactive calls.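 How the source made its calls: active means inhibition above a set limit, placed 3 SD over the median of all compounds (cut at about 26% in these data); inactive means the rest.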

Assay: compounds extending yeast replicative lifespan, primary screen, S. cerevisiae, OD615 (AID 775);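 further: 0% = nicotinamide-treated wells and 100% = cells grown without nicotinamide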
Details: S. cerevisiae growth with nicotinamide, at 10 µM, stronger effect = higher value, deaD strain in restrictive glucose medium
Method in brief: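 Material: Modified budding yeast, DeaD strain | Medium: Restrictive glucose medium | Probe or stimulus: 1.5 mM nicotinamide | Dosing: Single dose 10 µM compound, 0.25% DMSO | Times: 48 h at 30 °C | Technique: OD615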

SMILES | inhibition of the nicotinamide effect
O=C(OC1CN2CCC1CC2)C(CO)(c1ccccc1)c1ccccc1 (stereo not given) | inactive: -9.45%
CN(C)c1cccc(C(=O)NCC2(N(C)C)CCCCC2)c1 | inactive: -4.12%
CN(C)C1CCCC1OC(=O)C(O)(c1ccccc1)c1ccccc1 (stereo not given) | inactive: 1.78%
CCN1CCCC(OC(=O)C2(O)c3ccccc3C=Cc3ccccc32)C1 (stereo not given) | inactive: 2.84%
CC(C)N1C(=O)CC2(CCN(CCOC(=O)C(O)(c3ccccc3)c3ccccc3)CC2)C1=O | inactive: -10.8%
